PDI turbidity: inhibitors of human PDI, primary screen, biochemical, turbidity, single point, plate reader. inhibition, % at 10 µM. Protein disulfide-isomerase (Homo sapiens), P07237. AID 588391, 2011. PDI insulin aggregation turbidity, A650, 90 min. 350,000 tested, 0.052% active;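 active means mean inhibition across replicates of 30% or more, whatever share of single replicates reach that level; inconclusive means mean inhibition below 30% while every single replicate reaches 30%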
FGF22 binding: binders of human FGF22 protein, primary screen, FGF22 synaptogenesis inhibitor project, biophysical, thermal shift, single point. Fibroblast growth factor 22 (Homo sapiens), Q9HCT0. recombinant FGF22 thermal shift, SYPRO orange fluorescence; percent of sucrose octasulfate shift, DMSO zero. activity (Tm shift, normalised), % at 9.99 µM. 340,000 tested, 1.5% active. AID 651658, 2012;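 active means mean Tm shift, scaled 0 neutral to 100 positive control, at about 1.3% or above, every replicate too, limit read from the data; inconclusive means no clear call, values can overlap the other calls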
ARNT-TACC3 inh: disruptors of ARNT/TACC3 protein interaction, primary screen, biochemical, AlphaScreen, single concentration. Transforming acidic coiled-coil-containing protein 3 (Homo sapiens), Q9Y6A5. AlphaScreen His-ARNT PAS-B/GST-TACC3 binding, luminescence; TACC3 fragment carries E629A point mutation. inhibition, % at 9.99 µM. 390,000 tested, 0.66% active. AID 623870, 2012;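 active means mean inhibition of replicates at least 50% and at least half of replicates each reaching 50%; inconclusive means half or more replicates reach 50% but mean below 50%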
UUG fidelity: modulators of yeast start codon fidelity, primary screen, whole organism, S. cerevisiae, single point, plate reader | AID 602363, 2012 | actives 0.13% (n = 350,000) | activity score, % at 18.7 µM | S. cerevisiae UUG-firefly luciferase reporter, luminescence/redox ratio;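 active means replicate mean at a twofold rise or more, about +100% in these data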;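 further: firefly luciferase made from a UUG start codon reports start codon fidelity; reporter light over untreated wells divided by growth signal over untreated wells; some hits fall short of that in this replicate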
ERp5 block: inhibitors of ERp5-driven insulin aggregation, primary screen, biochemical, turbidity, absorbance 650 nm, single point; Protein disulfide-isomerase A6 (Homo sapiens), Q15084; inhibition, % at 9.99 µM; AID 651711, 2012; 90 min; 350,000 tested, 0.05% active;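 active means mean replicate inhibition above about 25%, with every replicate also reaching it, limit read from the data, passing the limit was not always enough; inconclusive means only one of those two criteria met; inactive means neither criterion met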
PglD DTNB: C. jejuni PglD acetyltransferase inhibitors, primary screen, biochemical, DTNB colorimetric, single point; purified PglD enzyme, DTNB colorimetric CoA detection; inhibition, % at 12.5 µM; 360,000 tested, 0.098% active; AID 602405, 2012; in the data active means inhibition above about 16%, passing the limit was not always enough; inconclusive means no clear call, values can overlap the other calls
A number is an active result; - = inactive; ? = inconclusive; . = no result given. Sampled rows, rich in hits. Any-hit rate of the full collection: about 1.9%.

Amino acid sequences for entries named in this document (tags omitted).
Protein disulfide-isomerase A6 (Homo sapiens), Q15084, UniProt Q15084, whole entry, looked up: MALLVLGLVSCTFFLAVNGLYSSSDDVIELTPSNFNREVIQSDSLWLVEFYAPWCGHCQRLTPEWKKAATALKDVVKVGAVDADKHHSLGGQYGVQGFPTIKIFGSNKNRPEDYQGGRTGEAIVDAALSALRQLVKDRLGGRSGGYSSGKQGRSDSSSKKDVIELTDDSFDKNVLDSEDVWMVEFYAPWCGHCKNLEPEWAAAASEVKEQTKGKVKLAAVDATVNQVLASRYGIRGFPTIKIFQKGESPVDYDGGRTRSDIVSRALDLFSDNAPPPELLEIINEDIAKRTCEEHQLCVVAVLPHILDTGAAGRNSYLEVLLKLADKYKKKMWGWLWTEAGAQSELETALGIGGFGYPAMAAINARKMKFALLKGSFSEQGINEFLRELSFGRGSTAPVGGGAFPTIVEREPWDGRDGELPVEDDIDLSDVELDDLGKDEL

SMILES	PDI turbidity	FGF22 binding	ARNT-TACC3 inh	UUG fidelity	ERp5 block	PglD DTNB
COc1cc2c(C#N)c(N3CCOCC3)nc(N)c2c(N)n1	-	.	69.2	-	.	-
CCC(=O)Nc1ccc2c(c1)C(=O)N(C)[C@H]1CC[C@H](CC(=O)Nc3ccc(OC)cc3)O[C@@H]1CO2	.	-	-	-	-	-
CC(=O)NC(=S)NNC(=O)CCc1ccccc1	-	-	-	.	-	.
CCCCC(=O)NC(=S)NNC(=O)CCc1ccccc1	-	-	29.2	-	-	-
O=C(CCc1ccccc1)NNC(=O)Nc1ccccc1	-	43.0	-	.	-	.
CCc1ccc(NC(=O)NNC(=O)CCc2ccccc2)cc1	-	-	-	-	-	-
CCCCC(=O)NC(=S)NNC(=O)c1ccc(OC)cc1	-	-	53.9	.	-	.
CCCNC(=O)C[C@H]1CC[C@@H]2[C@@H](COc3ccc(NC(=O)NCCC)cc3C(=O)N2C)O1	.	.	.	.	-	.
C[C@H](CO)N1C[C@H](C)[C@H](CN(C)C(=O)C2CC2)Oc2cc(-c3ccccc3)ccc2S1(=O)=O	.	.	.	-	.	.
O=C(Nc1ccc(N2CCOCC2)c(Cl)c1)c1ccc(Cl)cc1	-	-	-	-	-	-
O=C(Nc1ccc2oc(-c3ccccc3Cl)nc2c1)c1ncn[nH]1	-	-	49.9	-	-	-
O=C(Nc1ccc2oc(-c3cccc4ccccc34)nc2c1)c1ncn[nH]1	-	.	-	-	.	-
O=C(Nc1ccc(N2CCOCC2)c(Cl)c1)c1ncn[nH]1	-	.	58.1	-	.	-
COc1ccc(CN(C)C[C@@H]2Oc3ccc(NC(=O)Cc4ccccc4)cc3CC(=O)N([C@@H](C)CO)C[C@H]2C)cc1	.	-	.	.	-	.
CCOC(=O)Oc1c(OC)cc(C(=O)O[C@@H]2C[C@@H]3CN4CCc5c([nH]c6cc(OC)ccc56)[C@H]4C[C@@H]3[C@H](C(=O)OC)[C@H]2OC)cc1OC	34.5	-	-	-	?	-
COC(=O)C1C2CC3c4[nH]c5cc(OC)ccc5c4CCN3CC2CC(OC(=O)CC(C)=O)C1OC (centres undefined)	-	-	-	.	-	.
COc1ccc(Nc2nnc(-c3ccc(C(N)=O)cc3)c3ccccc23)cc1	-	-	50.9	-	-	-
COc1ccc(Nc2nnc(-c3ccccc3)c3ccccc23)cc1C(=O)N1CCCCC1	-	43.0	.	-	-	-
C[C@@H]1CN([C@@H](C)CO)C(=O)c2cc(NC(=O)Nc3cccc4ccccc34)ccc2O[C@H]1CN(C)Cc1ccc(C(F)(F)F)cc1	.	-	-	-	-	-
Cc1ccsc1/C=N/NC(=O)c1ccncc1	-	43.4	-	.	-	.
Cc1nonc1C(=O)N/N=C/c1ccc(O)cc1O	-	-	66.0	-	-	-
O=C(N/N=C/c1cc(Br)c(Br)s1)c1ccncc1	-	43.6	-	-	?	-
O=C(N/N=C/c1ccc(O)cc1O)c1ccncc1	-	-	73.7	-	-	-
C[C@H](CO)N1C[C@H](C)[C@H](CN(C)Cc2ccc(Oc3ccccc3)cc2)Oc2cc(-c3ccncc3)ccc2S1(=O)=O	.	-	-	-	-	-
Cc1c(NC(=O)/C(C#N)=C/c2ccc3ccccc3c2)c(=O)n(-c2ccccc2)n1C	.	-	.	.	-	.
SMILES	PDI turbidity	FGF22 binding	ARNT-TACC3 inh	UUG fidelity	ERp5 block	PglD DTNB
C[C@H]1CN([C@@H](C)CO)C(=O)Cc2cc(NS(=O)(=O)c3cccs3)ccc2O[C@H]1CN(C)C	.	-	-	-	-	-
C[C@@H]1CN([C@@H](C)CO)C(=O)c2cc(NC(=O)Cn3cnnn3)ccc2O[C@@H]1CN(C)Cc1ccc2c(c1)OCO2	.	-	-	-	-	-
COc1ccc2c3c([nH]c2c1)[C@@H](CO)N(C)CC31CN(C(=O)NC(C)C)C1	.	-	.	.	-	.
N#CNC(=Nc1ccc(F)cc1)SCc1ccccc1	-	44.1	.	.	-	.
CCCCNc1nc2c(c(=O)[nH]c(=O)n2C)n1CCCc1ccccc1	-	43.3	.	-	-	-
C[C@H]1CN([C@@H](C)CO)C(=O)c2cccc(NC(=O)c3nc4ccccc4s3)c2O[C@@H]1CN(C)C(=O)Nc1ccc(C(F)(F)F)cc1	.	-	-	-	26.6	-
C[C@@H]1CN([C@@H](C)CO)C(=O)c2cccc(NC(=O)c3ccc(-c4nccs4)cc3)c2O[C@@H]1CN(C)C(=O)Nc1ccc(C(F)(F)F)cc1	.	1.4	-	-	-	-
CNC[C@H]1Oc2c(N)cccc2C(=O)N([C@@H](C)CO)C[C@H]1C	.	.	.	.	85.8	.
C[C@H]1CN([C@@H](C)CO)C(=O)c2cccc(NC(=O)c3ccc(-c4nccs4)cc3)c2O[C@@H]1CN(C)C	.	-	-	-	-	20.8
C[C@@H]1CN([C@H](C)CO)S(=O)(=O)c2ccc(C3=CCCC3)cc2O[C@@H]1CN(C)S(=O)(=O)c1cn(C)cn1	.	-	-	-	-	-
COc1ccc2c3c(n(C)c2c1)[C@H](CO)N(CC1CCCCC1)CC31CN(C(C)=O)C1	.	-	.	.	.	.
CCc1nc2ccccc2c(C(=O)Oc2ccc(C(=O)OC)cc2)c1C	-	43.9	.	-	-	-
CCCN(C)C[C@H]1Oc2cc(C#Cc3ccccc3)ccc2S(=O)(=O)N([C@H](C)CO)C[C@H]1C	.	-	-	-	-	-
C[C@@H]1CN([C@H](C)CO)C(=O)c2cccc(NS(=O)(=O)c3cccs3)c2O[C@@H]1CN(C)Cc1ccc(C(=O)O)cc1	.	-	.	-	-	-
COc1ccc(N(CC(=O)Nc2cccnc2)S(C)(=O)=O)cc1	-	43.0	-	.	-	.
CCOc1ccc(N(C(C)C(=O)Nc2cccnc2)S(C)(=O)=O)cc1 (centres undefined)	-	43.4	.	-	-	-
COc1ccc(O)c(C2=Nc3ccccc3N=C(c3ccco3)C2)c1	-	.	53.0	-	.	-
Cc1cccc(C)c1-n1c(SCC(=O)Nc2ccc(C(=O)O)cc2)nnc1-c1cccc(S(=O)(=O)N(C)C)c1	-	43.2	-	.	-	.
O=C(C[C@@H]1CC[C@H](NS(=O)(=O)c2ccccc2)[C@@H](CO)O1)N1CCC(Cc2ccccc2)CC1	.	-	.	.	-	.
C[C@H]1CCCCO[C@H](CN(C)C(=O)Nc2cccc3ccccc23)[C@@H](C)CN([C@@H](C)CO)C(=O)c2cc(NC(=O)Nc3ccc4c(c3)OCO4)ccc2O1	.	12.5	-	-	-	-

High-throughput results (PubChem BioAssay)
